Experimental data taken from patent publication US20230167450A1, “BIFUNCTIONAL MOLECULES AND METHODS OF USING THEREOF” (Flagship Pioneering, Inc., priority 2020, published 2023).

Amino acid sequences for entries named in this document (tags omitted). A change or cut given only in a name is not applied to a line headed by its entry.
UniProt Q06187: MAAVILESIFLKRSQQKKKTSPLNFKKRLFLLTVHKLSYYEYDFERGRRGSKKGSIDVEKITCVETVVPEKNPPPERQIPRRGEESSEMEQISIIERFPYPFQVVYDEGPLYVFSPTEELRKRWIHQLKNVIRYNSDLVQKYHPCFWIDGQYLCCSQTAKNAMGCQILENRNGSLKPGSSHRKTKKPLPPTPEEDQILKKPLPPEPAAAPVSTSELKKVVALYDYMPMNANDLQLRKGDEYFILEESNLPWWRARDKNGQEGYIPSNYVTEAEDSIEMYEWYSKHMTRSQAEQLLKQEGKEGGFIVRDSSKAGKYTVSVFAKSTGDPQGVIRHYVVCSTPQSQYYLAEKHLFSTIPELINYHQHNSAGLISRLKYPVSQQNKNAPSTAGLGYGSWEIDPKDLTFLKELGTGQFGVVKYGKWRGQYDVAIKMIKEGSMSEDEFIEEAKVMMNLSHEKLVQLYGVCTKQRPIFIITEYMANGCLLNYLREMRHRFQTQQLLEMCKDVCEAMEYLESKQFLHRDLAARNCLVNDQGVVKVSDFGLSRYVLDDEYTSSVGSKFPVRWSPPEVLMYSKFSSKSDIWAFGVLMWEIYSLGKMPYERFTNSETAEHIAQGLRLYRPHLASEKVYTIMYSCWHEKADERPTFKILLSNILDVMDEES

Tests used:
purified BTK protein = target: T1, purified BTK protein (Homo sapiens, UniProt Q06187); assay: In vitro complex formation assay, gel shift of BTK protein band (binary complex); assay type: binding; conditions: 10 pmol ASOi, 2 pmol purified BTK protein, PBS, 90 minutes room temperature, PAGE Bis-Tris 4-12% gel
T1 construct: 2 pmol purified BTK protein
Description: In one reaction (#1), 10 pmol of the MALAT1 targeting ASO (hereafter called N33-ASOi) conjugated at the 5′ end with Ibrutinib was mixed in PBS with 2 pmol purified BTK protein, 200 pmol yeast rRNA (as non-specific blocker) and 20 pmol Cy5-labeled IVT RNA of the following sequence:
All reactions were incubated at room temperature for 90 minutes protected from light, then mixed with a loading buffer containing 0.5% SDS final and 10% glycerol final, and complexes separated by PAGE on a Bis-Tris 4-12% gel including an IRDye700 pre-stained protein molecular weight marker (LiCor). Immediately following electrophoresis, the gel was imaged using a LiCor Odyssey system with the 700 nm channel to identify the position of Cy5-IVT-RNA bands and MW marker. Next, proteins in the gel were stained using InstantBlue colloidal Coomassie stain (Expedeon) and re-imaged using transmitted light. The two images were lined up using size markers and lane positions to identify the relative positions of BTK protein bands and Cy5-IVT target RNA. (FIG. 3)

[1] = target: T2, BTK protein and Cy5-labeled IVT RNA (Homo sapiens, UniProt Q06187); assay: In vitro ternary complex formation assay (target RNA-bifunctional molecule-BTK), gel supershift; assay type: binding; conditions: 10 pmol ASOi, 2 pmol BTK protein, 20 pmol Cy5-labeled IVT RNA, PBS, 90 minutes room temperature, PAGE
T2 construct: 2 pmol purified BTK protein
Description: A ternary complex is a complex containing three different molecules bound together. […] An inhibitor-conjugated antisense oligonucleotide (hereafter referred to as ASOi) (i.e., Rluc ASO conjugated to Ibrutinib-MPEA) was mixed with the protein target of the inhibitor (i.e., BTK) and the RNA target of the ASO (i.e., Rluc RNA), and allowed to react with the protein and hybridize with the RNA target to form a ternary complex including all 3 molecules. The same was also performed with MALAT1 targeting ASO with the sequence 5′CGUUAACUAGGCUUUA3′ (SEQ ID NO: 4) conjugated at the 5′ end with Ibrutinib (BTK inhibitor; BTKi) and the RNA target of the ASO (i.e., MALAT1 RNA) as shown in FIG. 2A. FIG. 2B depicts the gel analysis results detecting the formation of the ternary complex. Binding of the ASOi to the target protein caused the protein to migrate higher (shift up) on a polyacrylamide gel because of its increased molecular weight. […] Furthermore, labeling the target RNA with a fluorescent dye allowed direct visualization of the target RNA in the supershifted protein complex.
In one reaction (#1), 10 pmol of the MALAT1 targeting ASO (hereafter called N33-ASOi) conjugated at the 5′ end with Ibrutinib was mixed in PBS with 2 pmol purified BTK protein, 200 pmol yeast rRNA (as non-specific blocker) and 20 pmol Cy5-labeled IVT RNA of the following sequence: […]

N33-ASOi: MALAT1 targeting ASO 5′CGUUAACUAGGCUUUA3′ (SEQ ID NO: 4) conjugated at the 5′ end with Ibrutinib (cguuaacuaggcuuua; 5' Ibrutinib conjugate)
increase in MW of the BTK protein band (binary complex formation) (purified BTK protein): binary complex formation
supershift of the BTK protein band in the presence of Cy5-IVT RNA (ternary complex formation) [1]: further supershift

SCR-ASOi: non-complementary RNA oligo 5′AGAGGUGGCGUGGUAG3′ (SEQ ID NO: 6) conjugated at the 5′ end with Ibrutinib (agagguggcgugguag; 5' Ibrutinib conjugate; non-complementary RNA oligo)
supershift of the BTK protein band in the presence of Cy5-IVT RNA (ternary complex formation) [1]: not
